# From patent US10280188B2, “Fluorine-containing bisphosphonic acid derivative and use thereof” (NAGASAKI UNIVERSITY, priority 2015, dated 2019)
# System: human monocyte tumor cell line P31/FUJ
# Test: Specific cytotoxicity of Vδ2 positive γδ T cells on compound-treated P31/FUJ (time-resolved fluorescence)
# Settings: γδ T cells from normal adult (3), E/T 0.625:1-40:1, single concentration tested
smiles,measurement,value
"O=P(O)(O)C(F)(Cn1ccnc1)P(=O)(O)O [ZOLF, 1-fluoro-(2-imidazoyl-1-ethylidene)-1,1-bisphosphonic acid]",concentration at which sensitivity to cytotoxicity activity of Vδ2 positive γδ T cells is promoted,at least 500 μM
